Earlier results in patent US20100189701A1, “METHODS AND COMPOSITIONS TO TREAT ARRHYTHMIAS” (priority 2007, published 2010).

Details: steady state inactivation; cited from earlier work

## SCN5a: cardiac sodium channel
  Slope factor: −6.5 mV
